Assay results: patent US20080305049A1, “Mri Contrast Agents for Diagnosis and Prognosis of Tumors” (priority 2005, published 2008)

Experiment: T1 and T2 relaxivity of water at 4.7 Tesla
Type: physicochemical

## gadolinium chelate of 2,2′,2″,2′″-[(pyridine-2,6-diyl)bis(methylenenitrilo) tetrakis(acetic acid) [reference compound]
  T1 relaxivity: 6.0 ± 0.2 mM⁻¹ s⁻¹
  T2 relaxivity: 6.6 ± 0.8 mM⁻¹ s⁻¹
